# “Also recorded” adds a separate entry of the source.
# The chains behind the UniProt entries cited, without tags or fusion partners. A line that says so, or that is headed by a name, gives the form on record, which may keep a tag or linker.
# UniProt Q96RI1, with tags, fused parts or gaps limits assumed: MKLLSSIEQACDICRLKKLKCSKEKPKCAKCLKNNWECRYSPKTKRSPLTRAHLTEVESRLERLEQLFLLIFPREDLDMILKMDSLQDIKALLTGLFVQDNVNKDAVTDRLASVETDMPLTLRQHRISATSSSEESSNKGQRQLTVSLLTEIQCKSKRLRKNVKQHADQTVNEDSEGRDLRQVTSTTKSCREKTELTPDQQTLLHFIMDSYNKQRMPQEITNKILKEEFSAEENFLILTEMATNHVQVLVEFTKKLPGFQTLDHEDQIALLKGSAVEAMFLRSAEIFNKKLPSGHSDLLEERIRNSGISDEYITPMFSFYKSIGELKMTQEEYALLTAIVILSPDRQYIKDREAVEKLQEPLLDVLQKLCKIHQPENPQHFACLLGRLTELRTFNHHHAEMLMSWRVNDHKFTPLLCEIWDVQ
# Assays:
# human FXR [1] = biological target: T1, human FXR (Homo sapiens, UniProt Q96RI1); experiment: FXR-bla reporter gene assay, agonist mode (qHTS)
# human FXR [2] = biological target: T1, human FXR; experiment: FXR-bla reporter gene assay, antagonist mode (CDCA-induced transactivation)
compound,measurement,setting,value
C[C@]12CC[C@@H]3c4ccc(O)cc4C[C@@H](CCCCCCCCC[S+]([O-])CCCC(F)(F)C(F)(F)F)[C@H]3[C@@H]1CC[C@@H]2O (stereo partly drawn) [Fulvestrant],FXR agonist mode EC50,human FXR [1],Inactive
same,FXR antagonist mode Efficacy,human FXR [2],50 ± 27
CCOC(=O)C1=C(C)NC(C)=C(C(=O)OC)C1c1cccc(Cl)c1Cl (stereo not drawn) [Felodipine],FXR agonist activity,human FXR [1],activated; also recorded: an agonist
same,FXR agonist mode Efficacy,human FXR [1],30 ± 9
same,FXR antagonist mode IC50,human FXR [2],Inactive
CC(=O)[C@]1(O)Cc2c(O)c3c(c(O)c2[C@@H](O[C@H]2C[C@H](N)[C@H](O)[C@H](C)O2)C1)C(=O)c1ccccc1C3=O [Idarubicin],IC50,human FXR [2],4.07 ± 0.28 µM

# From publication PMC4894417, “Quantitative High-Throughput Profiling of Environmental Chemicals and Drugs that Modulate Farnesoid X Receptor” (Scientific Reports, 2014)
